The target of this assay is Thyroid hormone receptor beta (Homo sapiens) (UniProt P10828). As to the kind of experiment: qHTS for Inhibitors of the Interaction of Thyroid Hormone Receptor and Steroid Receptor Coregulator 2. Note: nearly all actives have a fitted effect of over 50% in size. The conditions noted are these: TRbeta-SRC2 peptide binding, fluorescence polarization, receptor liganded with 1 µM T3; at 106 µM (top of the series) unless noted. An excerpt: NIH Molecular Libraries Probe Production Network [MLPCN]
NIH Chemical Genomics Center [NCGC]
Assay Provider: R. Kip Guy, St. Jude Children's Research Hospital
Thyroid receptor (TR) regulates many homeostatic processes including basal metabolism, cardiovascular function, body weight, and lipid trafficking. TR modulators are potential therapeutics for obesity and hyperlipidemias but current thyroid analogs have undesirable side effects, particularly cardiac stimulation. To identify inhibitors that specifically prevent the interaction of TR with the steroid receptor coregulator 2 (SRC2), a fluorescence polarization assay was screened. This assay detects interaction of the ligand-binding domain of human TRb with a Texas Red labeled SRC2 peptide, corresponding to a 20 amino acid region of the nuclear receptor interaction domain (Arnold et al., 2006). Small molecule inhibitors that block the interaction of TR and SRC2 are detected by a decrease in fluorescence polarization.
Arnold, L. A.; Estebanez-Perpina, E.; Togashi, M.; Shelat, A.; Ocasio, C. A.; McReynolds, A. C.; Nguyen, P.; Baxter, J. D.; Fletterick, R. J.; Webb, P.; Guy, R. K. A high-throughput screening method to identify small molecule inhibitors of thyroid hormone receptor coactivator binding. Sci STKE 2006, p 13.
NCGC Assay Protocol Summary:
For screening, 5 uL/well 0.6 uM TRb and 20 nM SRC2 Texas Red in protein buffer (20mM Tris hydrochloride, 100mM NaCl, 10% glycerol, 1mM EDTA, 0.01% NP-40, 1mM DTT, 1uM T3 and 5% DMSO) was dispensed into black solid 1536-well plates (Grenier) using a solenoid-based dispenser. Following transfer of 23 nL compound or DMSO vehicle by a pin tool, the plates were centrifuged 15 s at 1000 RPM and incubated 5 hr at ambient temperature. […] Data were normalized to unbound (all components except TRb) and bound SRC2 Texas Red controls. In this assay, we provide % activity data for each concentration as well as potencies for the active compounds.
Keywords: NIH Roadmap, MLPCN, MLI, MLSMR, qHTS, NCGC, qHTS, thyroid hormone receptor, steroid receptor coactivator, fluorescence polarization
In general terms: Quantitative high-throughput screening tests each substance at several concentrations.

Protein sequences, listed by entry. Tags and fused reporters are not part of them. Lines headed by an entry give the natural chain unless they say otherwise; changes in a name come on top.
UniProt P10828: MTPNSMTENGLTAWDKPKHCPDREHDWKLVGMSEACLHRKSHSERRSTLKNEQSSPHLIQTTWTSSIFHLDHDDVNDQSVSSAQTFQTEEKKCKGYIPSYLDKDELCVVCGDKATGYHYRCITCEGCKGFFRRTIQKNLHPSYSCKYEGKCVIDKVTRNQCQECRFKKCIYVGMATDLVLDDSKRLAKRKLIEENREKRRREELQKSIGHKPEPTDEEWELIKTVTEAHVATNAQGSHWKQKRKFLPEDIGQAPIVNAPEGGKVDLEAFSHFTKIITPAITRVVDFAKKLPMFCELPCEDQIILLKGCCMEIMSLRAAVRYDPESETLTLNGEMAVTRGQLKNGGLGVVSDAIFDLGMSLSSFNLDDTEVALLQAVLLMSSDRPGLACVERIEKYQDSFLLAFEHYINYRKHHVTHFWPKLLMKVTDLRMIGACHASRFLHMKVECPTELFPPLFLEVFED

“And” between values parts separate entries of the source, which are not always exact repeats. Equal entries are not always repeated. The list shows a part of the results, in another mix than the full data. The source made the active and inactive calls. Calls come from the whole dose curve; as a rule, active = well fitted inhibition curve with a large enough effect; inconclusive = small, poorly fitted or top-dose-only effect, or effect the other way; inactive = flat fitted curve, though single readings scatter.

On to `COc1cc(I)ccc1[As](=O)(O)O`, for which the activity change, negative = inhibition is inactive: -0.929%.
Consider `CCOC(=O)c1ccc(NC(=O)C(C)(CCl)SC)cc1` (stereo unspecified), for which the activity change, negative = inhibition is inactive: -0.327%.
Turning to `CCC(C)N(CC(C)C)C(=S)SC(NC(C)=O)C(Cl)(Cl)Cl` (stereo unspecified), the activity change, negative = inhibition is inactive: -17.4%.
For the compound `COP1(=S)c2c(C)nn(CCC#N)c2N=C(c2ccc(F)cc2)N1C` (stereo unspecified), the activity change, negative = inhibition is inactive: -17%.
Take `CCCCO[P+](=O)OCCCC`: the activity change, negative = inhibition was inactive: 4.25% [at 201 µM].
As to `CCOC(=O)Nc1cccc([As](=O)(O)O)c1`, the activity change, negative = inhibition was inactive: -5.31%.
As to `O=P(Nc1ccccn1)(c1cccc2ccccc12)c1cccc2ccccc12`, the activity change, negative = inhibition is inactive: 3.95%.
With `Cc1cc(SC(NC=O)C(Cl)(Cl)Cl)ncn1` (stereo unspecified), the activity change, negative = inhibition was inactive: -2.46%.
To `CN(N=O)C(=N)N[N+](=O)[O-]` belongs inactive: 5.87%.
As for `O=[N+]([O-])c1ccc(Nc2ccc(Oc3ccc([N+](=O)[O-])cc3[N+](=O)[O-])cc2)c([N+](=O)[O-])c1`, the activity change, negative = inhibition was inactive: 1.39%.
To `CCOC(=O)Nc1ccc([As](=O)(O)O)c(O)c1` belongs inactive: -5.27%.
To `Cc1cc(SC(NC(=O)c2ccccc2)C(Cl)(Cl)Cl)nc(C(C)C)n1` (stereo unspecified) belongs inactive: 7.59%; to `O=[N+]([O-])c1ncn(CCn2ncnc2[N+](=O)[O-])n1`, inactive: 6.26%; to `CC(C)(C)C(=O)NC(Sc1ccncn1)C(Cl)(Cl)Cl` (stereo unspecified), inactive: -7.27%.
With `O=C(O)CNc1ccc([As](=O)(O)O)cc1`, the activity change, negative = inhibition is inactive: -4.7%.
On to `O=[N+]([O-])c1cccc(NC2=NCC(CBr)S2)c1` (stereo unspecified), for which the activity change, negative = inhibition is inactive: -1.61%.
For the compound `O=C(Nc1cc([As](=O)(O)O)ccc1O)c1ccccc1`, the activity change, negative = inhibition is inactive: -4.02%.
To `CCN(/C(=N/P(=O)(N1CCOCC1)N1CCOCC1)N1CCOCC1)c1ccc(OC)cc1` belongs inactive: 0.266%; to `Nc1ccc([As](=O)(O)c2ccc(N)cc2)cc1`, inactive: 1.17%.
Take `C[N+]1=C2C=CC=CC=C2SC12C([N+](=O)[O-])=CC([N+](=O)[O-])=C[C-]2[N+](=O)[O-]` (stereo unspecified): the activity change, negative = inhibition was inactive: 1.95%.
As for `CC1CCN(C(=O)Oc2c(Cl)cc(Cl)c3cccnc23)CC1`, the activity change, negative = inhibition was inactive: -3.07%.
Regarding `CC(=O)C1=CCCC2CCC1N2` (stereo unspecified), the activity change, negative = inhibition is inactive: 4.42% and inactive: -8.25%.
Next, `CC(C)=N/N=C(\N)N[N+](=O)[O-]`: inactive: 0.392%; `CN(C)C(=O)OCCc1n(C)cc[n+]1C`: inactive: 1.46%.
For the compound `O=[N+]([O-])c1ccc([N+](=O)[O-])cc1`, the activity change, negative = inhibition was inactive: -4.23% [at 201 µM].
Regarding `COc1ccc(C2=NCC(CBr)S2)cc1` (stereo unspecified), the activity change, negative = inhibition is inactive: 1.14%.
Next, `Cc1ccc(NP(=O)(Oc2ccccc2)Oc2ccccc2)nc1`: inactive: 0.299%; `CCc1nc2c(n1)c1c(non1O)c1c2no[n+]1[O-]`: inactive: 15.3%.
To `O=[N+]([O-])c1cc([N+](=O)[O-])c(CCNc2ccccc2)c([N+](=O)[O-])c1` belongs inactive: 8.3%; to `O=[N+]([O-])c1cccc2n[nH]nc12`, inactive: -6.97%; to `CC(=O)N1C2C3N(C(C)=O)C1C1N(C(C)=O)C(C(N1C(C)=O)N3C(C)=O)N2C(C)=O`, inactive: -2.78%.
To `Oc1ccccc1CNc1ccccn1` belongs inactive: 7.66%.
Regarding `O=C(NC(Sc1ccncn1)C(Cl)(Cl)Cl)c1ccccc1` (stereo unspecified), the activity change, negative = inhibition is inactive: 4.59%.
Next, `Cc1c2non([O-])c-2c(C)[n+](=O)[n+]1[O-]`: inactive: -0.629%; `CC(C)OP(=O)(OC(C)C)SCCNS(=O)(=O)c1ccccc1`: inactive: -4.25% [at 201 µM]; `Nc1cc(N)c2nonc2c1[N+](=O)[O-]`: inactive: 7.22%.
To `CC(C)CC(=O)NC(Sc1ccc(Cl)cc1)C(Cl)(Cl)Cl` (stereo unspecified) belongs inactive: 0.638%.
Take `Cc1ccc(N/C(=N/P(=O)(N2CCOCC2)N2CCOCC2)N2CCOCC2)cc1`: the activity change, negative = inhibition was inactive: 0.71%.
Next, `NC(=O)c1cc([N+](=O)[O-])cc([N+](=O)[O-])c1N`: inactive: -8.87%.
Next, `CN1CCCC(OC(=O)C(c2ccccc2)c2ccccc2)C1` (stereo unspecified): inactive: -18.1%; `Clc1ccc(Cl)c(NC2=NCC(CBr)S2)c1` (stereo unspecified): inactive: 1.46%; `COc1ccccc1OP(=O)(Nc1ccc(C)cn1)Oc1ccccc1OC`: inactive: 3.97% [at 53 µM].
To `Cc1ccc(OP(=O)(Nc2nccs2)Oc2ccc(C)cc2)cc1` belongs inactive: 8.67%; to `Nc1cccc2ccc([As](=O)(O)O)cc12`, inactive: -17.8%.
As to `CCN(N=Nc1nonc1N)c1nonc1N`, the activity change, negative = inhibition is inactive: 0.101%.
For `O=P(Nc1nc2ccc(Cl)cc2s1)(c1ccccc1)c1ccccc1`, the activity change, negative = inhibition was inactive: -2.27%.
Next, `CC(=O)Nc1ccc([As](=O)(O)O)cc1`: inactive: -7.17%; `O=C(O)c1ccccc1[As](=O)(O)O`: inactive: -3.72%; `Cc1cc(SC(NC(=O)c2ccc(F)cc2)C(Cl)(Cl)Cl)ncn1` (stereo unspecified): inactive: 0.802%.
For `Cc1ccc(NP(=O)(Oc2ccccc2F)Oc2ccccc2F)nc1`, the activity change, negative = inhibition is inactive: -0.884%.
Next, `O=C(OC1CN2CCC1CC2)c1ccccc1` (stereo unspecified): inactive: 4.12%.

(Values after PubChem BioAssay AID1469 (National Center for Advancing Translational Sciences (NCATS), 2008).)
